Results from PubChem BioAssay AID588690 (Broad Institute, 2011).
This is one part of the list. Calls of active or inactive are those of the source.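 The calls were made as follows: active = highest replicate activation at or above 34% and every replicate reaching that threshold; inconclusive = meets only one of the two criteria; inactive = meets neither criterion.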

Protein sequences, listed by entry. Tags and fused reporters are not part of them. Lines headed by an entry give the natural chain unless they say otherwise; changes in a name come on top.
UniProt P13346: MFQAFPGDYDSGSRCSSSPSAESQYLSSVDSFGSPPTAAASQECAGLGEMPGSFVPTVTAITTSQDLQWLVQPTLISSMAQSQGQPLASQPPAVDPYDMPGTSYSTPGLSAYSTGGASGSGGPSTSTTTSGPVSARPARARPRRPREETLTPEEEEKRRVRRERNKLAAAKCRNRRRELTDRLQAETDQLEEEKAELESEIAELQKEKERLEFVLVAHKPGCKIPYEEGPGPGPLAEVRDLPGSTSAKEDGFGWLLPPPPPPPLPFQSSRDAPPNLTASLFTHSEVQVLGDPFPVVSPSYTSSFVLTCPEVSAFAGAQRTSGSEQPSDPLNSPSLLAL

molecular target: Protein FosB (Mus musculus) (UniProt P13346); assay: activators of mouse delta FosB DNA binding, confirmation, biochemical, fluorescence polarization, TAMRA-CDK5 oligo, cherry-picked samples (AID 588690); settings: purified delta FosB, at 24.9 µM, active compounds read high, normalised: neutral wells 0, positive control 100;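 also: higher polarization means more probe DNA bound by delta FosB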

Row | Structure (SMILES) | activation
1 | CCC1=CC2Cc3nc4ccc(Cl)cc4c(N)c3C(C1)C2 (stereo unspecified) | inactive: 10.1%
